The experiment deals with RheoSwitch® (CHO-K1_RS-1 cells, firefly Luciferase reporter) (Choristoneura fumiferana, UniProt O77240). Kind of experiment: in vitro gene switch assay (fLUC Luciferase expression, potency screen). The note with it: 24 hours with compound, 25 μM to 2.5 pM, figure in parentheses after a value not defined. The experiment is classed as cell-based. Here is the method: Representative Compounds of the Disclosure were tested for biological activity in an in vitro gene switch assay (Tables 1 and 1A). Gene switch assays are disclosed, e.g., in U.S. Pat. Nos. 8,076,517; 7,456,315; 7,304,161; and 6,258,603.
CHO-K1 cells were stably transfected with a plasmid (RS-1, FIG. 1) coding for firefly Luciferase (fLUC) under the control of the RheoSwitch® resulting in the stable cell line CHO-K1_RS-1. A master cell bank was created containing approximately 100 vials at 5×10^6 cells per vial. One vial of CHO-K1_RS-1 was thawed and cultured for two weeks prior to each in vitro potency screening.
Twenty-four (24) hours prior to treatment with the control and test compounds the CHO-K1_RS-1 cells were seeded into white-opaque 384-well cell culture plates at 3,600 cells per well in 30 μl of culture medium. The cells were incubated in a humidified CO2 incubator at 37° C. until compound treatment.
Compounds were prepared at 25 mM in 100% dry DMSO and stored at room temperature in sealed 1 ml tubes prior to subsequent dilution and assay. […]
The cells were incubated with the compound for 24 hours in a humidified CO2 incubator at 37° C. […] The reagent was incubated with the cells for 10-120 minutes prior to reading on a Molecular Devices Spectramax L luminometer. […]

By UniProt entry, the sequences of proteins in these tests, tags left out. Residues count along the entry.
UniProt O77240, 1-513: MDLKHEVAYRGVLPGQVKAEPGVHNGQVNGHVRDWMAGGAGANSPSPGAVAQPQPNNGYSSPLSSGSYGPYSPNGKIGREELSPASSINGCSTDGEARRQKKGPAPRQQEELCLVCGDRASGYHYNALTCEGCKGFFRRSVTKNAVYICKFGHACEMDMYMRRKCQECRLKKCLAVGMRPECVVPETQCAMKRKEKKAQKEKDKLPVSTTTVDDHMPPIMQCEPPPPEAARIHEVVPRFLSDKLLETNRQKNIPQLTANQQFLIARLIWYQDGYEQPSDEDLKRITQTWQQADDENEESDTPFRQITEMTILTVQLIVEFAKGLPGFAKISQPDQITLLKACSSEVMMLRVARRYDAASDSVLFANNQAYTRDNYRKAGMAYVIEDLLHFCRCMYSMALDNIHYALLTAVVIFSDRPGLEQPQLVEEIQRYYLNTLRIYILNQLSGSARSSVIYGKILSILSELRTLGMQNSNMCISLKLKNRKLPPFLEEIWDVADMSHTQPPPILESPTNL

As to “(R)—N-(3,5-dimethylbenzoyl)-N-(2,2-dimethylpentan-3-yl)-1-hydroxy-6-methyl-3,4-dihydro-1H-benzo[c][1,5,2]dioxaborepine-7-carbohydrazide [Cpd. No. 79]”, the EC50 (commonly the concentration giving half of the maximal effect) came to 407 nM.

For the origin of these results see patent publication US9127024B2 (Intrexon Corporation, priority 2013, dated 2015).
